Results: patent US7053101B2, “1,3,8-triazaspiro[4,5]decan-4-one derivatives useful for the treatment of ORL-1 receptor mediated disorders” (dated 2006)

What follows are molecules tested against human nociceptin receptor (ORL-1) (Homo sapiens, UniProt P41146) (assay: nociceptin receptor binding assay (125I-Tyr14-nociceptin displacement, HEK293 cell membranes)). Conditions: 10 μM test compound; inhibition of 125I-Tyr14-nociceptin binding.

Row | SMILES | % Inh @ 10 μM [%]
1 | O=C1NCN(c2ccccc2)C12CCN(Cc1ccc(Cn3ccnc3)cc1)CC2 | 17

Same assay, conditions: 125I-Tyr14-nociceptin 0.5 nM; HEK293 cell membranes

Row | SMILES | pIC50
2 | O=C1NCN(c2ccccc2)C12CCN(Cc1cc(F)ccc1-c1cccs1)CC2 | 7.68
3 | O=C1NCN(c2ccccc2)C12CCN(CCCCc1ccccc1-c1cccs1)CC2 | 6.96
4 | O=C1NCN(c2ccccc2)C12CCN(Cc1ccc(Cn3ccnc3)cc1)CC2 | < 5.00
5 | O=C1NCN(c2ccccc2)C12CCN(Cc1ccccc1OC1CCCc3ccccc31)CC2 (stereo not shown) | 6.06
6 | O=C1NCN(c2ccccc2)C12CCN(Cc1cccc(COc3cccc(Cl)c3)c1)CC2 | 6.21
7 | O=C1NCN(c2ccccc2)C12CCN(Cc1ccccc1-c1cccnc1)CC2 | 7.24
8 | O=C1NCN(c2cccc(Cl)c2)C12CCN(Cc1ccccc1-c1cccs1)CC2 | 7.80
9 | O=C1NCN(c2ccccc2)C12CCN(Cc1ccccc1-c1ccco1)CC2 | 8.30
10 | CC1CN(Cc2ccccc2-c2cccs2)CCC12C(=O)NCN2c1ccc(F)cc1 (stereo not shown) | 8.24
11 | O=C1NCN(c2ccccc2)C12CCN(Cc1ccccc1-c1ccc[nH]1)CC2 | 7.27
12 | Cc1csc(-c2ccccc2CN2CCC3(CC2)C(=O)NCN3c2ccccc2)c1 | 7.33
13 | O=C1NCN(c2ccccc2)C12CCN(Cc1ccccc1COc1ccccc1)CC2 | 6.22
14 | CN1CN(c2ccccc2)C2(CCN(Cc3ccccc3-c3cccs3)CC2)C1=O | 8.32
15 | O=C(O)CN1CN(c2ccccc2)C2(CCN(Cc3ccccc3-c3cccs3)CC2)C1=O | 8.08
16 | Cc1ccc(N2CNC(=O)C23CCN(Cc2ccccc2-c2ccco2)CC3)cc1 | 7.52
17 | O=C1NCN(c2ccccc2)C12CCN(Cc1ccccc1-c1ccoc1)CC2 | 8.15
18 | O=C1NCN(c2ccccc2)C12CCN(Cc1ccc(-c3cccc4ccccc34)cc1)CC2 | 6.42
19 | COC(=O)c1ncoc1CN1CN(c2ccccc2)C2(CCN(Cc3ccccc3-c3ccsc3)CC2)C1=O | 8.14
20 | Cc1ccc(-c2ccccc2CN2CCC3(CC2)C(=O)NCN3c2ccccc2)s1 | 6.42
21 | O=C1NCN(c2ccccc2)C12CCN(Cc1ccc(-c3cccnc3)cc1)CC2 | 5.94
22 | Cc1ccc(-c2ccc(CN3CCC4(CC3)C(=O)NCN4c3ccccc3)cc2)cc1 | 6.65

pIC50: −log10 of the molar value.
